Source: article PMC10892409, “Exploring Ocimum basilicum’s Secondary Metabolites: Inhibition and Molecular Docking against Rhynchophorus ferrugineus for Optimal Action” (Plants, 2024)

System: R. ferrugineus adults
Test: Antifeedant/insecticidal test on adults with treated sugarcane stem (probit LC50)
Settings: after 1 day of treatment, 95% confidence limits in brackets

## Chicoric acid
  LC50: 1097 (1016–1175) µg/mL
